Laboratory results reported in PubChem BioAssay AID485314 (National Center for Advancing Translational Sciences (NCATS), 2010).
What follows is the remainder of the data, with few or none of the hits. Inconclusive results are not listed. Active and inactive are the calls of the source. Calls come from the whole dose curve; as a rule, active = well fitted inhibition curve with a large enough effect; inconclusive = small, poorly fitted or top-dose-only effect, or another doubt; inactive = no such curve, though single readings can be large or run the other way.

Target: DNA polymerase beta (Homo sapiens) (UniProt P06746)
Assay: qHTS Assay for Inhibitors of DNA Polymerase Beta
Conditions: Pol beta primer extension/strand displacement, fluorescence kinetic; at 114 µM (top of the series)
From the text: The base excision repair system in human cells is a target for therapeutic modulation of the response to irradiation treatment and DNA-damaging drugs. A key enzyme in this system is the bi-functional DNA polymerase known as DNA polymerase Beta (Pol Beta). The following is a homogeneous kinetic assay to study the primer extension and strand-displacement reaction catalyzed by pol beta.
A stepwise description of the 1536-well assay is shown in next Table. Three microliters of reagents (buffer in column 3 and 4 as negative control and 10 nM Pol beta in columns 1, 2, and 5-48) was dispensed into 1,536-well black solid-bottomed plate. Compounds (23 nL) were transferred via Kalypsys pin tool equipped with 1536-pin array (10 nL slotted pins, V&P Scientific, San Diego, CA). The plates were incubated for 15 min at room temperature, and 1 uL substrate (50 nM final concentration) were added to start the reaction and immediately read at 0 min read on Viewlux reader. The plate were further incubated for 10 min at room temperature, and then read on Viewlux again. Throughout the screen, reagent bottle and all liquid lines were chilled and made light-tight to minimize reagent degradation. All screening operations were performed on a fully integrated robotic system (Kalypsys, San Diego, CA) containing one RX-130 and two RX-90 anthropomorphic robotic arms (Staubli, Duncan, SC). […]
% is set by controls: 0 for no effect and ±100 for the full control effect.

Structure (SMILES)	activity change, negative = inhibition
C=C(C)[C@@H]1CC[C@]2(C(=O)O)CC[C@]3(C)C(CCC4[C@@]5(C)CC[C@H](O)C(C)(C)C5CC[C@]43C)C12 (stereo partly specified)	inactive: 17.9%
